# Values of other authors as cited in patent publication US20070281909A1, “Creatine phosphate prodrugs, compositions and uses thereof” (XenoPort, Inc., priority 2006, published 2007).
# Details: in vivo; cited from earlier work
structure (smiles),measurement,value
Nc1nc2ccc(OC(F)(F)F)cc2s1 [riluzole],Extension of survival in ALS,about three months
